Earlier results as cited in paper PMC6680850, “Anion Inhibition Profile of the β-Carbonic Anhydrase from the Opportunist Pathogenic Fungus Malassezia restricta Involved in Dandruff and Seborrheic Dermatitis” (Metabolites, 2019).

Molecular target: hCA II
Settings: pH 8.3; cited from earlier work

For O=NO [NO2^−, nitrite], the Ki is given as 63 mM.
